Here are results for 33 substances from US11845808B2, “Peptide inhibitors of interleukin-23 receptor and their use to treat inflammatory diseases” (Janssen Biotech, Inc., priority 2020, dated 2023).

Amino acid sequences for entries named in this document (tags omitted). Residues count along the entry.
UniProt Q5VWK5, 24-629 limits assumed: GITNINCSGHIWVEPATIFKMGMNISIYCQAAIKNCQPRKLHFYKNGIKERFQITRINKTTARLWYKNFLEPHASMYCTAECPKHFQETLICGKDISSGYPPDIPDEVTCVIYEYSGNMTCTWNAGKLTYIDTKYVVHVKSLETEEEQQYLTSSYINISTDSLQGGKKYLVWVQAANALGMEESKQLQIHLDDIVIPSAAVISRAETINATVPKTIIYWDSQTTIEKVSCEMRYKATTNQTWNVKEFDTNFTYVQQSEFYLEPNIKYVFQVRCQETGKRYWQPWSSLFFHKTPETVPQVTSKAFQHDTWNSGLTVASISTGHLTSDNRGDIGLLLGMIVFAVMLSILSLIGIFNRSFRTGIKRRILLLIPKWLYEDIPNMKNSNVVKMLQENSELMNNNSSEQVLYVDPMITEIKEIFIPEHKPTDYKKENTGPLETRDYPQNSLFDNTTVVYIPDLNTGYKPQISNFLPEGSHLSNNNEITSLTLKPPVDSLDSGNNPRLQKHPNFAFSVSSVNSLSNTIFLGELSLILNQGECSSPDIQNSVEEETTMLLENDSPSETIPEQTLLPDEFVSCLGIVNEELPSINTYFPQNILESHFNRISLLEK

In the assay the target is IL-23 stimulated phosphorylated STAT3 in PBMCs (Homo sapiens, UniProt Q5VWK5). Nature of the assay: PBMC pSTAT3 assay. The assay is classed as cell-based. The following applies: PBMCs from healthy donors, IL-23 5 ng/mL, 30 minutes.
A word on the IC50: it is the point on the concentration scale where inhibition reaches its midpoint. A lower IC50 goes with inhibition by little substance. In turn, “Ac-[Pen]-N-T-[W(7-Me)]-[Lys(Ac)]-[Pen]-Phe[4-(2-aminoethoxy)]-[2-Nal]-[a-MeLys]-[Lys(Ac)]-N-[(D)Val]-[(D)NMeTyr]-NH2 [Peptide 90]” displayed an IC50 of 7.1 nM.

Take “Ac-[Pen]-N-T-[W(7-Me)]-[(D)Tyr]-[Pen]-Phe[4-(2-aminoethoxy)]-[2-Nal]-[a-MeLys]-[Lys(Ac)]-N-[(D)Lys]-[(D)NMeTyr]-NH2 [Peptide 207]”: half-maximal inhibition (IC50) was put at 3.3 nM.

“Ac-[Pen]-N-T-[W(7-Ph)]-[Lys(Ac)]-[Pen]-Phe[4-(2-aminoethoxy)]-[2-Nal]-[THP]-[Lys(Ac)]-N-[3Pal]-[Sarc]-NH2 [Peptide 136]” yielded an IC50 of 0.011 nM.

Regarding “Ac-[(D)Arg]-[Pen]-N-T-[W(7-Me)]-[Lys(Ac)]-[Pen]-Phe[4-(2-aminoethoxy)]-[2-Nal]-[Acvc]-E-N-[(D)Arg]-[Sarc]-NH2 [Peptide 226]”, the IC50 worked out at 1.7 nM.

For “Ac-[(D)Arg]-[Pen]-N-T-[W(7-Me)]-[Lys(Ac)]-[Pen]-Phe[4-(2-aminoethoxy)]-[2-Nal]-[THP]-E-N-[(D)His]-NH2 [Peptide 92]”, the IC50 is 2.8 nM.

With “Ac-[(D)Arg]-[Pen]-Q-T-W-Q-[Pen]-Phe[4-(2-aminoethoxy)]-[2-Nal]-[THP]-[aMeGlu]-N-F-[(D)NMeTyr]-NH2 [Peptide 10]”, the 50% inhibitory concentration (IC50) came to 4.3 nM.

In turn, “Ac-[Pen]-N-T-[W(7-Me)]-[Lys(Ac)]-[Pen]-Phe[4-(2-aminoethoxy)]-[2-Nal]-[aMeLys]-[Lys(Ac)]-N-[(1-Me)His]-NH2 [Peptide 167]” yielded an IC50 of 14 nM.

Substance “Ac-[Pen]-N-T-[W(7-Me)]-[Cit]-[Pen]-Phe[4-(2-aminoethoxy)]-[2-Nal]-[aMeLeu]-[Lys(Ac)]-N-[(D)His]-NH2 [Peptide 85]” came in with an IC50 of 3 nM.

In turn, “Ac-[(D)Arg]-[Pen]-N-T-[W(7-Me)]-[Lys(Ac)]-[Pen]-Phe[4-(2-aminoethoxy)]-[2-Nal]-[THP]-E-N-[(5Pyal)]-NH2 [Peptide 164]” registered an IC50 of 0.011 nM.

On to “Ac-[Pen]-N-T-[W(7-Me)]-[Lys(Ac)]-[Pen]-Phe[4-(2-aminoethoxy)]-[2-Nal]-[a-Me-Lys]-[Lys(Ac)]-N-[(5Pyal)]-NH2 [Peptide 165]”, for which inhibition was half-maximal at 0.0053 nM (IC50).

Substance “Ac-[(D)Arg]-[Pen]-N-T-[W(7-Me)]-[Lys(Ac)]-[Pen]-Phe[4-(2-aminoethoxy)]-[2-Nal]-[THP]-E-N-[THP]-[(D)Pro]-NH2 [Peptide 223]” yielded an IC50 of 13 nM.

On to “Ac-[Pen]-N-T-[W(7-Me)]-[Lys(Ac)]-[Pen]-Phe[4-(2-aminoethoxy)]-[2-Nal]-[a-MeLys]-[Lys(Ac)]-N-N-[(D)NMeTyr]-NH2 [Peptide 89]”, for which the IC50 was 6.9 nM.

Substance “Ac-[Pen]-N-T-[W(7-Me)]-[Lys(Ac)]-[Pen]-Phe[4-(2-aminoethoxy)]-[2-Nal]-[a-MeLys]-[Lys(Ac)]-N-Phe[4-aminomethyl]-[(D)NMeTyr]-NH2 [Peptide 84]” returned an IC50 of 13 nM.

As to “Ac-[Pen]-N-T-[W(7-Me)]-[Lys(Ac)]-[Pen]-Phe[4-(2-aminoethoxy)]-[2-Nal]-[a-MeLys]-[Lys(Ac)]-N-[bAla]-[(D)NMeTyr]-NH2 [Peptide 220]”, it took 8.4 nM to reach half-maximal inhibition (IC50).

For “Ac-[Pen]-N-T-[W(7-Me)]-[Lys(Ac)]-[Pen]-Phe[4-(2-aminoethoxy)]-[2-Nal]-[a-MeLys]-[Lys(Ac)]-N-F-[(D)NMeTyr]-NH2 [Peptide 58]”, the IC50 stood at 19 nM.

For the substance “Ac-[(D)Arg]-[Pen]-Q-T-W-Q-[Pen]-Phe[4-(2-aminoethoxy)]-[2-Nal]-[THP]-E-N-N-[(D)NMeTyr]-NH2 [Peptide 9]”, the IC50 was 24 nM.

Turning to “Ac-[(D)Arg]-[Abu]-Q-T-W-Q-[Cys]-Phe[4-(2-aminoethoxy)]-[2-Nal]-[THP]-E-N-N-[(D)NMeTyr]-NH2 [Peptide 8]”, 1 nM corresponded to half-maximal inhibition (IC50).

On to “Ac-[Pen]-N-T-[W(7-Me)]-[Lys(Ac)]-[Pen]-Phe[4-(2-aminoethoxy)]-[2-Nal]-[a-MeLys]-[Lys(Ac)]-N-H-[(D)NMeTyr]-NH2 [Peptide 82]”, for which 0.98 nM corresponded to half-maximal inhibition (IC50).

“Ac-[Pen]-N-T-[W(7-Me)]-[Lys(Ac)]-[Pen]-Phe[4-(2-aminoethoxy)]-[2-Nal]-[Acvc]-E-N-Phe[4-NH2]-[Sarc]-NH2 [Peptide 228]”: the IC50 was found to be 17 nM.

As for “Ac-[Pen]-N-T-[W(7-Me)]-[Lys(Ac)]-[Pen]-Phe[4-(2-aminoethoxy)]-[2-Nal]-[a-MeLys]-[Lys(Ac)]-N-[(D)His]-NH2 [Peptide 86]”, inhibition was half-maximal at 7.2 nM (IC50).

Take “Ac-[Pen]-N -T-[W(7-Me]-[Lys(Ac)]-[Pen]-Phe[4-(2-aminoethoxy)]-[2-Nal]-[a-Me-Lys]-[Lys(Ac)]-N-[3Pal]-[(D)NMeTyr]-NH2 [Peptide 168]”: the IC50 turned out to be 0.019 nM.

Substance “Ac-[Pen]-N-T-[W(7-Me)]-[Lys(Ac)]-[Pen]-Phe[4-(2-aminoethoxy)]-[2-Nal]-[a-MeLys]-[Lys(Ac)]-N-[bAla]-[(D)NMeTyr]-NH2 [Peptide 219]” had an IC50 of 14 nM.

The substance “Ac-[Pen]-N-T-[W(7-Me)]-[Lys(Ac)]-[Pen]-Phe[4-(2-aminoethoxy)]-[2-Nal]-[a-MeLys]-[Lys(Ac)]-N-[(D)Orn]-[(D)NMeTyr]-NH2 [Peptide 203]” registered an IC50 of 2.9 nM.

“Ac-[Pen]-N-T-[W(7-Me)]-[Lys(Ac)]-[Pen]-Phe[4-(2-aminoethoxy)]-[2-Nal]-[a-MeLys]-[Lys(Ac)]-N-[bAla]-[Sarc]-NH2 [Peptide 236]” displayed an IC50 of 17 nM.

In turn, “Ac-[(D)Arg]-[Pen]-N-T-[W(7-Me)]-[Lys(Ac)]-[Pen]-Phe[4-(2-aminoethoxy)]-[2-Nal]-[THP]-E-N-[3Pal]-[Sarc]-NH2 [Peptide 266]” returned an IC50 of 0.81 nM.

Substance “Ac-[Pen]-N-T-[W(7-Me)]-[Lys(Ac)]-[Pen]-Phe[4-(2-aminoethoxy)]-[2-Nal]-[a-MeLys]-[Lys(Ac)]-N-[(D)Tyr]-[Sarc]-NH2 [Peptide 241]” had an IC50 of 13 nM.

“Ac-[Pen]-N-T-[W(7-Me)]-[Lys(Ac)]-[Pen]-Phe[4-(2-aminoethoxy)]-[2-Nal]-[a-MeLys]-[Lys(Ac)]-N-[(D)Arg]-[Sarc]-NH2 [Peptide 238]” registered an IC50 of 8.9 nM.

“Ac-[Pen]-N-T-[W(7-Me)]-[Cit]-[Pen]-Phe[4-(2-aminoethoxy)]-[2-Nal]-[aMeLeu]-[Lys(Ac)]-N-[(D)Lys]-[(D)NMeTyr]-NH2 [Peptide 216]” returned an IC50 of 1.8 nM.

“Ac-[(D)Arg]-[Pen]-N-T-[W(7-Me)]-[Lys(Ac)]-[Pen]-Phe[4-(2-aminoethoxy)]-[2-Nal]-[THP]-E-N-H-[(D)Tyr]-NH2 [Peptide 206]”: 0.78 nM corresponded to half-maximal inhibition (IC50).

“Ac-[(D)Arg]-[Cys]-N-T-[W(7-Me)]-[Lys(Ac)]-[aMeCys]-Phe[4-(2-aminoethoxy)]-[2-Nal]-[Acvc]-E-N-H-[Sarc]-NH2 [Peptide 233]”: the midpoint of inhibition, the IC50, lay at 4.3 nM.

Substance “Ac-[(D)Arg]-[Pen]-N-T-[W(7-Me)]-[Lys(Ac)]-[Pen]-Phe[4-(2-aminoethoxy)]-[2-Nal]-[THP]-E-N-[3Pal]-[Sarc]-NH2 [Peptide 247]” returned an IC50 of 0.0043 nM.

The substance “Ac-[Pen]-N-T-[W(7-Me)]-[Phe(4-CONH2)]-[Pen]-Phe[4-(2-aminoethoxy)]-[2-Nal]-[a-MeLys]-[Lys(Ac)]-N-[(D)Lys]-[(D)NMeTyr]-NH2 [Peptide 210]” came in with an IC50 of 6.8 nM.

On to “Ac-[(D)Arg]-[Pen]-N-T-[W(7-Me)]-[Lys(Ac)]-[Pen]-Phe[4-(2-aminoethoxy)]-[2-Nal]-[THP]-E-N-N-[(D)NMeTyr]-NH2 [Peptide 88]”, for which the IC50 is more than 2000 nM.
